Patent publication US20160282364A1, “ASSAY FOR INSULIN-DEGRADING ENZYME (IDE) INHIBITORS” (PRESIDENT AND FELLOWS OF HARVARD COLLEGE, priority 2013, published 2016)

Amino acid sequences for entries named in this document (tags omitted). Residues count along the entry.
UniProt P14735, 42-1019 A479L limits assumed: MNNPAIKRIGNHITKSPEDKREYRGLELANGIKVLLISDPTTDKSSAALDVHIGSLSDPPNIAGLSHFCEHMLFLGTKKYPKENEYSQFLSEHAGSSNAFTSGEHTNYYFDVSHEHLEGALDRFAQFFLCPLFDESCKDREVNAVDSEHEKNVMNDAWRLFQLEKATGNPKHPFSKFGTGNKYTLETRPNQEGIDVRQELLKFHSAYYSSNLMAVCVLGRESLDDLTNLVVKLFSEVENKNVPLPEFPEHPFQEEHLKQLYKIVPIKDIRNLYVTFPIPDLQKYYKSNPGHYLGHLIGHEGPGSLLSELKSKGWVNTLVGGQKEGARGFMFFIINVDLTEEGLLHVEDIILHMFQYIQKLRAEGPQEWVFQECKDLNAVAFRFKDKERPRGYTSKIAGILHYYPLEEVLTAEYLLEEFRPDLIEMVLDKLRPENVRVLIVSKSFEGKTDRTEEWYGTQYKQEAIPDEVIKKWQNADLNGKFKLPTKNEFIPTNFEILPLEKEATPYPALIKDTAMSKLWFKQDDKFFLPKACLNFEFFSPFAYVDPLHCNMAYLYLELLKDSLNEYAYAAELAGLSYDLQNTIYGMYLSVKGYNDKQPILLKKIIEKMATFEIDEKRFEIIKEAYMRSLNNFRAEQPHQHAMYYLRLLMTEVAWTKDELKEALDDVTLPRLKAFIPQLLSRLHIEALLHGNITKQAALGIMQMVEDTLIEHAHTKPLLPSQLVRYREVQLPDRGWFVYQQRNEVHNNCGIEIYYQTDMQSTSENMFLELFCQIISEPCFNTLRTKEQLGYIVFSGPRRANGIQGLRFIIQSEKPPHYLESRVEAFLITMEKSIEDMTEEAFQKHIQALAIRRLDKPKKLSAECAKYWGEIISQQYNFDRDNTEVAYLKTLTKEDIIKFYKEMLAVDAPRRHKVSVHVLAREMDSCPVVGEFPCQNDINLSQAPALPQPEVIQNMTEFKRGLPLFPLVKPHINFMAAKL

Target: hIDE A479L (Homo sapiens, UniProt P14735, A479L)

`NC(=O)CC[C@@H]1NC(=O)/C=C/C(=O)N[C@H](C(N)=O)CCCCNC(=O)[C@@H](Cc2ccc(C(=O)c3ccccc3)cc2)NC(=O)[C@H](CC2CCCCC2)NC1=O` was tested, and the IC50 shift was greater than 600.
